Data: US4680304A, “Feed compositions containing 2-(α-pyridyl)-Δ^2 -heterocyclic compounds” (SmithKline Beckman Corporation, priority 1985, dated 1987)

System: fermentation in the digestive tract (swine ileal/cecal inoculum)
Test: In vitro swine procedure (fistula test; incubation of filtered ileal/cecal inoculum)
Set-up: species or system swine (Yorkshire barrow)
Details: 5 hours at 37°

Compound | GLU (glucose) (1.67 ppm) | LAC (L-lactic acid) (1.67 ppm) | LYS (lysine) (1.67 ppm) | GLU (glucose) (16.67 ppm) | LAC (L-lactic acid) (16.67 ppm) | LYS (lysine) (166.67 ppm) | VFA (total of volatile fatty acids) (166.67 ppm) | LAC (L-lactic acid) (entry (a), 166.7 ppm)
COC(=O)C1(C)NN=C(c2ccccn2)N1 (stereo not drawn) [Methyl 5-methyl-3-(2'-pyridyl)-4,5-dihydro-1H-triazole-5-carboxylate] | 112 % of control values | 105 % of control values | 47 % of control values | 102 % of control values | 102 % of control values | 81 % of control values | 95 % of control values | –
CC1(O)CC(C(N)=O)N=C1c1ncccc1O (stereo not drawn) [3,4-dihydro-4-hydroxy-5-(3-hydroxy-2-pyridinyl)-4-methyl-2H-pyrrole-2-carboxamide] | 97 % of control values | – | – | 100 % of control values | – | – | – | 162 % of control values
Virginiamycin [reference compound] | – | 39 % of control values | – | – | 21 % of control values | – | – | –
